The values that follow come from patent US20210395313A1, “PEPTIDE PAC1 ANTAGONISTS” (AMGEN INC., priority 2017, published 2021).

One experiment deals with T1, human PAC1 receptor (Homo sapiens, UniProt P41586).
T1 construct: SHSY-5Y (human neuroblastoma cell line) and RG-2 (rat glioma cell line) cells endogenously express human and rat PAC1 receptors, respectively; endogenous in cells; host or cells: SHSY-5Y human neuroblastoma cells
T1 sequence (P41586 21-468): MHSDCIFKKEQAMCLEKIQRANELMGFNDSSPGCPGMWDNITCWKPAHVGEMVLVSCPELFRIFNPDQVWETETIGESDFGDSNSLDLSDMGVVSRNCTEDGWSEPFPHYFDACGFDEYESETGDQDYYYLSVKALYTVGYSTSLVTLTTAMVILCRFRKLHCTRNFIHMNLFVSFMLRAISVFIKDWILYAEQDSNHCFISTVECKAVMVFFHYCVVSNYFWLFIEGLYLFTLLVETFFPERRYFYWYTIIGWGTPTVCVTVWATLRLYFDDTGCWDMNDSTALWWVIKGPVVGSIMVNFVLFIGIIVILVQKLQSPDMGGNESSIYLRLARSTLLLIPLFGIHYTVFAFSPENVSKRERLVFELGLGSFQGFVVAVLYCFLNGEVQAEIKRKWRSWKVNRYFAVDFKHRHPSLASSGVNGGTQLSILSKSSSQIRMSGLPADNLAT
The experiment is described as follows: LANCE Ultra cAMP accumulation antagonist assay in SHSY-5Y cells.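 Further: inhibition of cAMP accumulation evoked by PAC1 agonist at its EC80 in SHSY-5Y cells endogenously expressing receptor, 30 min preincubation then 15 min agonist, TR-FRET readout.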 The experiment is classed as cell-based. On the technique in general: Time-resolved FRET reads energy transfer from a long-lived donor to a nearby acceptor.

Another experiment deals with T2, rat PAC1 receptor (Rattus norvegicus, UniProt P32215).
T2 construct: SHSY-5Y (human neuroblastoma cell line) and RG-2 (rat glioma cell line) cells endogenously express human and rat PAC1 receptors, respectively; endogenous in cells; host or cells: RG-2 rat glioma cells
T2 sequence (P32215 20-523): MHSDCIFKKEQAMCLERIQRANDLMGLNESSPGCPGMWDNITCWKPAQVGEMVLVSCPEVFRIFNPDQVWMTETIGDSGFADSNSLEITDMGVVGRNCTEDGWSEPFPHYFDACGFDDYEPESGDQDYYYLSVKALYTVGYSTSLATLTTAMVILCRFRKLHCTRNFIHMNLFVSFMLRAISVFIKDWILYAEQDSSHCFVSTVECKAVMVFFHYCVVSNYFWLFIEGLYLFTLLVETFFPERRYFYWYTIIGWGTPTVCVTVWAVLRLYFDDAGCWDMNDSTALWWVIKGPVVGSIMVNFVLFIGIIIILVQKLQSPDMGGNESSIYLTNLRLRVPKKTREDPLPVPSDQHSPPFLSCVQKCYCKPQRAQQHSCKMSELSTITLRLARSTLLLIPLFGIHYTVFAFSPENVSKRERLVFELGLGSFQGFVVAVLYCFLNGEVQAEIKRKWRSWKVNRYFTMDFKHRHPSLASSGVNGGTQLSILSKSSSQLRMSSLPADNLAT
The experiment is described as follows: LANCE Ultra cAMP accumulation antagonist assay in RG-2 cells.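 Further: RG-2 rat glioma cells endogenously expressing PAC1, test peptide preincubated 30 min, then PAC1 agonist added at its EC80 for 15 min, cAMP accumulation read by LANCE Ultra.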 Type of experiment: cell-based.

Usually IC50 stands for the midpoint of a concentration-inhibition curve. Turning to `CCCC[C@H](NC(=O)[C@@H]1CSSC[C@H](NC(=O)[C@H](CC(=O)O)NC(=O)[C@H](CC(=O)O)NC(=O)[C@@H](NC(=O)[C@H](C)NC(=O)[C@H](CCCCN)NC(=O)[C@H](CCCNC(=N)N)NC(=O)[C@H](Cc2ccccc2)NC(=O)[C@H](CCC(N)=O)NC(=O)[C@@H]2CSSC[C@H](N)C(=O)N[C@@H](CC(=O)O)C(=O)N[C@@H](C)C(=O)N[C@@H]([C@@H](C)O)C(=O)N2)[C@@H](C)CC)C(=O)N[C@@H](CCC(N)=O)C(=O)N[C@@H](CCCCN)C(=O)N[C@@H](CCC(N)=O)C(=O)N[C@@H](C)C(=O)N[C@@H](Cc2c[nH]cn2)C(=O)N[C@@H](Cc2c[nH]cn2)C(=O)N[C@@H](CO)C(=O)N[C@@H](CC(N)=O)C(=O)N[C@@H](C(C)C)C(=O)N2CCC[C@H]2C(=O)NCC(=O)N[C@@H](CO)C(=O)N[C@@H](C(C)C)C(=O)N[C@@H](Cc2ccccc2)C(=O)N[C@@H](CCCCN)C(=O)NC(C)(C)C(=O)N1)C(=O)N[C@@H](CCCCN)C(=O)N[C@@H](CCC(N)=O)C(=O)N[C@@H](CCCCN)C(=O)N[C@@H](CCCCN)C(=O)N[C@@H](CCCCN)C(=O)N[C@@H](CCC(=O)O)C(=O)N[C@@H](Cc1ccccc1)C(=O)N[C@@H](CCCCN)C(=O)N[C@@H](C)C(=O)NCC(N)=O` [compound 263], the IC50 on human PAC1 receptor was 1 to 100 nM; at rat PAC1 receptor it was 0.01 to 1 nM.

With `CCCC[C@H](NC(=O)[C@@H]1CSSC[C@H](NC(=O)[C@H](CC(=O)O)NC(=O)[C@H](CC(=O)O)NC(=O)[C@@H](NC(=O)[C@H](C)NC(=O)[C@H](CCCCN)NC(=O)[C@H](CCCNC(=N)N)NC(=O)[C@H](Cc2ccccc2)NC(=O)[C@H](CCC(N)=O)NC(=O)[C@@H]2CSSC[C@H](NC(C)=O)C(=O)N[C@@H](CC(=O)O)C(=O)N[C@@H](C)C(=O)N[C@@H]([C@@H](C)O)C(=O)N2)[C@@H](C)CC)C(=O)N[C@@H](CCC(N)=O)C(=O)N[C@@H](CCCCN)C(=O)N[C@@H](CCC(N)=O)C(=O)N[C@@H](C)C(=O)N[C@@H](Cc2c[nH]cn2)C(=O)N[C@@H](Cc2c[nH]cn2)C(=O)N[C@@H](CO)C(=O)N[C@@H](CC(N)=O)C(=O)N[C@@H](C(C)C)C(=O)N2CCC[C@H]2C(=O)NCC(=O)N[C@@H](CO)C(=O)N[C@@H](C(C)C)C(=O)N[C@@H](Cc2ccccc2)C(=O)N[C@@H](CCCCN)C(=O)NC(C)(C)C(=O)N1)C(=O)N[C@@H](CCCCN)C(=O)N[C@@H](CCC(N)=O)C(=O)N[C@@H](CCCCN)C(=O)N[C@@H](CCCCN)C(=O)N[C@@H](CCCCN)C(=O)N[C@@H](CCC(=O)O)C(=O)N[C@@H](Cc1ccccc1)C(=O)N[C@@H](CCCCN)C(N)=O` [compound 260], the IC50 at human PAC1 receptor is 1 to 100 nM; against rat PAC1 receptor, 0.01 to 1 nM.

Turning to `CC[C@H](C)[C@H](NC(=O)[C@H](C)NC(=O)[C@H](CCCCN)NC(=O)[C@H](CCCNC(=N)N)NC(=O)[C@H](Cc1ccccc1)NC(=O)[C@H](CCC(N)=O)NC(=O)[C@@H]1CSSC[C@H](N)C(=O)N[C@@H](CC(=O)O)C(=O)N[C@@H](C)C(=O)N[C@@H]([C@@H](C)O)C(=O)N1)C(=O)N[C@@H](CC(=O)O)C(=O)N[C@@H](CC(=O)O)C(=O)N[C@H]1CSSC[C@@H](C(=O)N[C@@H](CCSC)C(=O)N[C@@H](CCCCN)C(=O)N[C@@H](CCC(N)=O)C(=O)N[C@@H](CCCCN)C(=O)N[C@@H](CCCCN)C(=O)N[C@@H](CCCCN)C(=O)N[C@@H](CCC(=O)O)C(=O)N[C@@H](Cc2ccccc2)C(=O)N[C@@H](CCCCN)C(=O)N[C@@H](C)C(=O)NCC(N)=O)NC(=O)[C@@H](C)NC(=O)[C@H](CCCCN)NC(=O)[C@H](Cc2ccccc2)NC(=O)[C@H](C(C)C)NC(=O)[C@H](CO)NC(=O)CNC(=O)[C@@H]2CCCN2C(=O)[C@H](C(C)C)NC(=O)[C@H](CC(N)=O)NC(=O)[C@H](CO)NC(=O)[C@H](Cc2c[nH]cn2)NC(=O)[C@H](Cc2c[nH]cn2)NC(=O)[C@H](C)NC(=O)[C@H](CCC(N)=O)NC(=O)[C@H](CCCCN)NC(=O)[C@H](CCC(N)=O)NC1=O` [compound 230], the IC50 against human PAC1 receptor and at rat PAC1 receptor was 0.01 to 1 nM throughout.

Regarding `CCCC[C@H](NC(=O)[C@@H]1CSSC[C@H](NC(=O)[C@H](CC(=O)O)NC(=O)[C@H](CC(=O)O)NC(=O)[C@@H](NC(=O)[C@H](C)NC(=O)[C@H](CCCCN)NC(=O)[C@H](CCCNC(=N)N)NC(=O)[C@H](Cc2ccccc2)NC(=O)[C@H](CCC(N)=O)NC(=O)[C@@H]2CSSC[C@H](N)C(=O)N[C@@H](CC(=O)O)C(=O)N[C@@H](C)C(=O)N[C@@H]([C@@H](C)O)C(=O)N2)[C@@H](C)CC)C(=O)N[C@@H](CCC(N)=O)C(=O)N[C@@H](CCCCN)C(=O)N[C@@H](CCC(N)=O)C(=O)N[C@@H](C)C(=O)N[C@@H](Cc2c[nH]cn2)C(=O)N[C@@H](Cc2c[nH]cn2)C(=O)N[C@@H](CO)C(=O)N[C@@H](CC(N)=O)C(=O)N[C@@H](C(C)C)C(=O)N2CCC[C@H]2C(=O)NCC(=O)N[C@@H](CO)C(=O)N[C@@H](C(C)C)C(=O)N[C@@H](Cc2ccccc2)C(=O)N[C@@H](CCCCN)C(=O)N[C@@H](CCC(=O)O)C(=O)N1)C(=O)N[C@@H](CCCCN)C(=O)N[C@@H](CCC(N)=O)C(=O)N[C@@H](CCCCN)C(=O)N[C@@H](CCCCN)C(=O)N[C@@H](CCCCN)C(=O)N[C@@H](CCC(=O)O)C(=O)N[C@@H](Cc1ccccc1)C(=O)N[C@@H](CCCCN)C(N)=O` [compound 269], the IC50 against human PAC1 receptor and against rat PAC1 receptor was 1 to 100 nM throughout.

As to `CC[C@H](C)[C@H](NC(=O)[C@H](C)NC(=O)[C@H](CCCCN)NC(=O)[C@H](CCCNC(=N)N)NC(=O)[C@H](Cc1ccccc1)NC(=O)[C@H](CCC(N)=O)NC(=O)[C@@H]1CSSC[C@H](N)C(=O)N[C@@H](CC(=O)O)C(=O)N[C@@H](C)C(=O)N[C@@H]([C@@H](C)O)C(=O)N1)C(=O)N[C@@H](CC(=O)O)C(=O)N[C@@H](CC(=O)O)C(=O)N[C@H]1CSSC[C@@H](C(=O)N[C@@H](CCSC)C(=O)N[C@@H](CCCCN)C(=O)N[C@@H](CCC(N)=O)C(=O)N[C@@H](CCCCN)C(=O)N[C@@H](CCCCN)C(=O)N[C@@H](CCCCN)C(=O)N[C@@H](CCC(=O)O)C(=O)N[C@@H](Cc2ccccc2)C(=O)N[C@@H](CCCCN)C(N)=O)NC(=O)[C@H](CCC(=O)O)NC(=O)[C@H](CCCCN)NC(=O)[C@H](Cc2ccccc2)NC(=O)[C@H](C(C)C)NC(=O)[C@H](CO)NC(=O)[C@H](CC(N)=O)NC(=O)CNC(=O)[C@@H]2CCCN2C(=O)[C@H](C(C)C)NC(=O)[C@H](CC(N)=O)NC(=O)[C@H](CO)NC(=O)C(C)(C)NC(=O)[C@H](Cc2c[nH]cn2)NC(=O)[C@H](C)NC(=O)[C@H](CCC(N)=O)NC(=O)[C@H](CCCCN)NC(=O)[C@H](CCC(N)=O)NC1=O` [compound 289], the IC50 against human PAC1 receptor and against rat PAC1 receptor was 1 to 100 nM throughout.

In the case of `CC[C@H](C)[C@H](NC(=O)[C@H](C)NC(=O)[C@H](CCCCN)NC(=O)[C@H](CCCNC(=N)N)NC(=O)[C@H](Cc1ccccc1)NC(=O)[C@H](CCC(N)=O)NC(=O)[C@@H]1CSSC[C@H](N)C(=O)N[C@@H](CC(=O)O)C(=O)N[C@@H](C)C(=O)N[C@@H]([C@@H](C)O)C(=O)N1)C(=O)N[C@@H](CC(=O)O)C(=O)N[C@@H](CC(=O)O)C(=O)N[C@H]1CSSC[C@@H](C(=O)N[C@@H](CCSC)C(=O)N[C@@H](CCCCN)C(=O)N[C@@H](CCC(N)=O)C(=O)N[C@@H](CCCCN)C(=O)N[C@@H](CCCCN)C(=O)N[C@@H](CCCCN)C(=O)N[C@@H](CCC(=O)O)C(=O)N[C@@H](Cc2ccccc2)C(=O)N[C@@H](CCCCN)C(N)=O)NC(=O)C(C)(C)NC(=O)[C@H](CCCCN)NC(=O)[C@H](Cc2ccccc2)NC(=O)[C@H](CO)NC(=O)[C@H](CC(N)=O)NC(=O)[C@H](CO)NC(=O)[C@H](Cc2c[nH]cn2)NC(=O)[C@H](Cc2c[nH]cn2)NC(=O)[C@H](C)NC(=O)[C@H](CCC(N)=O)NC(=O)[C@H](CCCCN)NC(=O)[C@H](CC(=O)O)NC1=O` [compound 244], the IC50 against human PAC1 receptor lay within 1 to 100 nM; against rat PAC1 receptor, 0.01 to 1 nM.
